Results published in patent US10836770B2, “Imidazopyridazine compounds useful as modulators of IL-12, IL-23 and/or INF alpha responses” (priority 2016, dated 2020).
pEC50, pIC50: −log10 of the molar value.

Protein sequences, listed by entry. Tags and fused reporters are not part of them. Chains listed by the source or under a name are the forms on record and can include a tag or linker. Residues count along the entry.
UniProt P29597, 575-869 with tags or gaps: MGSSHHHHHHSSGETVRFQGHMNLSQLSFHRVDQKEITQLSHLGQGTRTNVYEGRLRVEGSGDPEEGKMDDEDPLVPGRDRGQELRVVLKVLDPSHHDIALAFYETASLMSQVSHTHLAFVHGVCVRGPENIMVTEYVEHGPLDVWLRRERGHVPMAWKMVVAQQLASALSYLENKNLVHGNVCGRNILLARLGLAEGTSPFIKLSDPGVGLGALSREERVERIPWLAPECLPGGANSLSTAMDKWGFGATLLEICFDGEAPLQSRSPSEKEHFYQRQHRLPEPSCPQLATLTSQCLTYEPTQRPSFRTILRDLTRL

Key:
[1] = system: IL-23-stimulated Kit225 T cells with STAT-dependent luciferase reporter; test: Kit225 T cell assay, IL-23 stimulated STAT-dependent luciferase reporter; format: cell-based; details: read-out: IL-23 Kit225 Reporter, LE (IC50), 20 ng/mL human recombinant IL-23, 5-6 hours
[2] = biological target: recombinantly expressed His-tagged protein corresponding to amino acids 575-869 of human Tyk2 (Homo sapiens, UniProt P29597); test: Probe displacement assay (scintillation proximity, radiolabeled probe); format: binding; details: read-out: Probe Displacement EC50; 2.5 nM Tyk2 (575-869), 40 nM [3H] probe, 30 minutes at room temperature
[3] = system: IFNα-stimulated Kit225 T cells with STAT-dependent luciferase reporter; test: Kit225 T cell assay, IFNα stimulated STAT-dependent luciferase reporter; format: cell-based; details: read-out: IFNa Kit225 Reporter, LE (IC50), 200 U/mL human recombinant IFNα, 5-6 hours

Question: `CNc1cc(Nc2ccoc2C(=O)NCCOC)nn2c(C(=O)NC3CC3)cnc12` was tested. Which pIC50 [1] did it give?
Answer: 7.30

Question: What about the pEC50 [2] of the same compound?
Answer: 8.56

Question: What about the pIC50 [3] of the same compound?
Answer: 7.00
